PubChem BioAssay AID1845 (The Scripps Research Institute Molecular Screening Center, 2009)
The entries are a selection whose mix differs from that of the whole data set. Calls of active or inactive are those of the source. Rule as the data show it: active = inhibition above about 37%; inactive = the rest.

Experiment: compounds displacing fluorescent DNA intercalator, primary screen, artefact control for HCV NS3 helicase inhibitor project, biochemical, FID fluorescence (AID 1845);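 also: 0% = vehicle and 100% = reference compound; higher means more ethidium bromide displaced from hairpin DNA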
Settings: DNA fluorescent intercalator displacement, at 7.9 µM, active compounds read high

Row | SMILES | inhibition
1 | Cc1cccc(C)c1OP(C)(N)=O (centres undefined) | inactive: 0.97%
2 | CC(C)(C)c1ccc(OP(C)(=O)Nc2ccc(SC(F)(F)F)cc2)cc1 (centres undefined) | inactive: -14.5%
3 | O=[N+]([O-])c1ccc2c(c1)C=Nc1ccccc1O2 | inactive: 9.09%
4 | COc1ccc(OP(C)(=O)Nc2cccc(F)c2)cc1 (centres undefined) | inactive: -6.44%
5 | COc1ccccc1OP(C)(=O)Nc1cc(Cl)ccc1C (centres undefined) | inactive: -20.1%
6 | Cc1cc(C)cc(OP(C)(N)=O)c1 (centres undefined) | inactive: 3.22%
7 | CCOC(=O)c1ccc(NP(C)(=O)Oc2ccccc2)cc1 (centres undefined) | inactive: -7.68%
8 | Cc1ccc(NP(C)(=O)Oc2ccccc2)c(C)c1 (centres undefined) | inactive: -11.6%
9 | COc1ccccc1OP(C)(=O)Nc1ccc(C)cc1 (centres undefined) | inactive: -8.18%
10 | CCN(CC)CCCOC(=O)C(O)(c1ccccc1)c1ccccc1 | inactive: 6.82%
11 | Cc1cc(C)cc(OP(C)(=O)Nc2ccc(SC(F)(F)F)cc2)c1 (centres undefined) | inactive: -10.2%
12 | CP(=O)(NC(=O)Nc1ccccc1)Oc1ccccc1 (centres undefined) | inactive: 1.78%
13 | CCc1ccc(OP(C)(=O)N2CCN(c3ccc([N+](=O)[O-])cc3)CC2)cc1 (centres undefined) | inactive: -30.2%
14 | CP(=O)(Oc1ccccc1)OC(c1ccccc1)C(F)(F)F (centres undefined) | inactive: -11.6%
15 | Cc1cccc(C)c1OP(C)(=O)Nc1ccc(SC(F)(F)F)cc1 (centres undefined) | inactive: -10%
16 | CP(=O)(Nc1ccc(SC(F)(F)F)cc1)Oc1ccc(Cl)cc1 (centres undefined) | inactive: -21.5%
17 | CP(=O)(Nc1ccccn1)Oc1ccc(Cl)cc1 (centres undefined) | inactive: -0.23%
18 | CCOP(C)(=S)SCC(=O)NC(C)C(=O)O (centres undefined) | inactive: -1.65%
19 | CCOC(=O)c1ccc(NP(C)(=O)Oc2ccc(OC)cc2)cc1 (centres undefined) | inactive: -21.6%
20 | COc1ccccc1OP(C)(=O)Nc1ccccc1 (centres undefined) | inactive: -2.26%
21 | CP(=O)(Nc1ccccc1Br)Oc1ccccc1 (centres undefined) | inactive: -2.82%

Row | SMILES | inhibition
22 | CP(=S)(Nn1cnnc1)Oc1ccccc1 (centres undefined) | inactive: 0.11%
23 | CCOC(=O)C(CC)C1=NC(C)(C)Cc2ccccc21.O=[N+]([O-])c1cc([N+](=O)[O-])c(O)c([N+](=O)[O-])c1 (centres undefined) | inactive: -1.07%
24 | O=[N+]([O-])c1cc([N+](=O)[O-])c(Nc2nnnn2CCO)c([N+](=O)[O-])c1 | inactive: 2.8%
25 | CCCOc1ccc(NP(C)(=O)Oc2ccc(Cl)cc2)cc1 (centres undefined) | inactive: -27.9%
26 | CP(=O)(Nc1ccc(SC(F)(F)F)cc1)Oc1ccccc1 (centres undefined) | inactive: -16.9%
27 | COc1ccccc1OP(C)(=O)Nc1c(C)cccc1C (centres undefined) | inactive: -8.12%
28 | CN1CCCCC1COC(=O)C1(O)c2ccccc2CCc2ccccc21 (centres undefined) | inactive: 5.39%
29 | O=[N+]([O-])c1cc([N+](=O)[O-])c(-n2nnc3ccccc32)c([N+](=O)[O-])c1 | inactive: 2.16%
30 | Cc1nc2ccc3ccccc3c2s1.O=[N+]([O-])c1cc([N+](=O)[O-])c(O)c([N+](=O)[O-])c1 | inactive: 1.89%
31 | Cc1cc(C)cc(OP(C)(=O)Nc2ccc(C)cc2C)c1 (centres undefined) | inactive: -23.9%
32 | CCOC(=O)c1ccc(NP(C)(=O)Oc2cc(C)cc(C)c2)cc1 (centres undefined) | inactive: -30.5%
33 | COc1ccccc1OP(C)(=O)Nc1cccc(Br)c1 (centres undefined) | inactive: -22.2%
34 | Cc1cc(C)cc(OP(C)(=O)Nc2ccccn2)c1 (centres undefined) | inactive: -3.01%
35 | CP(=O)(Nc1cccc(Br)c1)Oc1ccccc1 (centres undefined) | inactive: -8.58%
36 | Cc1ccc(C)c(NP(C)(=O)Oc2ccccc2)c1 (centres undefined) | inactive: -6.6%
37 | O=C(O)c1cccc(Nc2c([N+](=O)[O-])cc([N+](=O)[O-])cc2[N+](=O)[O-])c1 | inactive: -0.37%
38 | CC1=NCCc2c1[nH]c1ccccc21.O=[N+]([O-])c1cc([N+](=O)[O-])c(O)c([N+](=O)[O-])c1 | inactive: 13.9%
39 | COc1ccc(OP(C)(=O)Nc2ccc(SC(F)(F)F)cc2)cc1 (centres undefined) | inactive: -21%
40 | CCOC(=O)c1ccc(NP(C)(=O)Oc2ccc(F)cc2)cc1 (centres undefined) | inactive: -25.7%
41 | CCCCCOc1ccc(NP(C)(=O)Oc2ccc(Cl)cc2Cl)cc1 (centres undefined) | inactive: -6.09%
42 | O=[N+]([O-])c1cc([N+](=O)[O-])c(OC2CCCCC2O)c([N+](=O)[O-])c1 (centres undefined) | inactive: 1.44%

Row | SMILES | inhibition
43 | CP(=O)(Nc1ccccc1)Oc1ccc(F)cc1 (centres undefined) | inactive: -3.8%
44 | CCN(CC)CCCOC(=O)C(O)(c1ccccc1)C1CCCCC1 (centres undefined) | inactive: 10.2%
45 | CC(C)c1ccc(OP(C)(=O)Nc2ccc(SC(F)(F)F)cc2)cc1 (centres undefined) | inactive: -15.7%
46 | CP(=O)(Nc1ccccc1F)Oc1ccccc1 (centres undefined) | inactive: -1.37%
47 | O=C(OCCN1CCN(CCOCc2ccccc2)CC1)C(O)(c1ccccc1)c1ccccc1 | inactive: 11.1%
48 | O=C(OC1CN2CCC1CC2)c1ccc([N+](=O)[O-])cc1 (centres undefined) | inactive: 2.67%
49 | CCOP(C)(=S)SCC(=O)NC(C)(CC)C(=O)O (centres undefined) | inactive: 0.14%
50 | CP(=O)(Nc1ccc(SC(F)(F)F)cc1)Oc1ccc(F)cc1 (centres undefined) | inactive: -16.8%
51 | Cc1ccccc1NP(C)(=O)Nc1ccccc1C | inactive: -1.71%
52 | CP(=O)(Nc1ccc2c(c1)OCCO2)Oc1ccccc1 (centres undefined) | inactive: -6.05%
53 | COc1ccc(NP(C)(=O)Oc2ccccc2OC)cc1 (centres undefined) | inactive: -5.24%
54 | CN(C)CCOC(=O)C(O)(c1ccccc1)C1CCCCC1 (centres undefined) | inactive: 9.33%
55 | COc1ccc(OP(C)(=O)Nc2cccc(Br)c2)cc1 (centres undefined) | inactive: -14.7%
56 | Cc1cc(-c2cccc3ccccc23)c(C)cn1.O=[N+]([O-])c1cc([N+](=O)[O-])c(O)c([N+](=O)[O-])c1 | inactive: -6.69%
57 | O=[N+]([O-])c1cc([N+](=O)[O-])c(NCC2CCS(=O)(=O)C2)c([N+](=O)[O-])c1 (centres undefined) | inactive: -3.83%
58 | O=[N+]([O-])c1ccc(OP2(=O)COCCO2)cc1 (centres undefined) | inactive: -4.31%
59 | CP(=O)(OC12CC3CC(CC(C3)C1)C2)OC12CC3CC(CC(C3)C1)C2 | inactive: -26%
60 | CCOC(=O)c1ccc(NP(C)(=O)Oc2ccc(Cl)cc2)cc1 (centres undefined) | inactive: -21.3%
61 | CCc1ccc(OP(C)(=O)Nc2cccnc2)cc1 (centres undefined) | inactive: -6.49%
62 | CP(=O)(Oc1ccccc1)N1CCOC1=O (centres undefined) | inactive: 2.17%
63 | O=C(OCCCN1CCCC1)C(O)(c1ccccc1)C1CCCCC1 (centres undefined) | inactive: 15%

Row | SMILES | inhibition
64 | COc1ccccc1OP(C)(=O)Nc1c(C)n(C)n(-c2ccccc2)c1=O (centres undefined) | inactive: -17.4%
65 | COc1ccc(OP(C)(=O)Nc2ccc(Br)cc2)cc1 (centres undefined) | inactive: -18.6%
66 | CCN(CC)CC(O)COC(=O)C(O)(c1ccccc1)C1CCCCC1 (centres undefined) | inactive: 11.6%
67 | CN(C)C(=O)c1c([N+](=O)[O-])cc([N+](=O)[O-])cc1[N+](=O)[O-] | inactive: -1.24%
68 | CP(=O)(Nc1ccc(Cl)cc1)Oc1ccc(F)cc1 (centres undefined) | inactive: -9.45%
69 | COc1ccccc1OP(C)(=O)Nc1ccccc1Br (centres undefined) | inactive: 4.1%
70 | CC(C)(C)c1ccc(OP(C)(=O)O)cc1 | inactive: -2.37%
71 | CN(C)CCOC(=O)C(O)(c1ccccc1)C1CCCC1 (centres undefined) | inactive: 9.91%
72 | COc1ccc(OP(C)(=O)Nc2ccccn2)cc1 (centres undefined) | inactive: -0.64%
73 | COc1ccccc1OP(C)(=O)Nc1ccc(Br)cc1 (centres undefined) | inactive: -10.1%
74 | CCc1ccc(OP(C)(=O)O)cc1 | inactive: 1.15%
75 | COc1ccccc1OP(C)(=O)Nc1ccc(C)cc1C (centres undefined) | inactive: -16.8%
76 | CP(=O)(Nc1ccccn1)Oc1ccccc1 (centres undefined) | inactive: 2.34%
77 | Cc1c(NP(C)(=O)Oc2ccc(C(C)C)cc2)c(=O)n(-c2ccccc2)n1C (centres undefined) | inactive: -30.5%
78 | O=[N+]([O-])c1cc([N+](=O)[O-])c(Nc2ccccn2)c([N+](=O)[O-])c1 | inactive: 10.8%
79 | COc1ccc(OP(C)(=O)Nc2ccccc2Br)cc1 (centres undefined) | inactive: -10.8%
80 | COc1ccccc1OP(C)(=O)Nc1ccc(C)c(C)c1 (centres undefined) | inactive: -13.7%
81 | Cc1cc(C)cc(OP(C)(=O)Nc2cccc(C(F)(F)F)c2)c1 (centres undefined) | inactive: -20.9%
82 | CP(=O)(Nc1ccc(Cl)cc1Cl)Oc1ccccc1 (centres undefined) | inactive: -8.83%
83 | CP(=O)(OCCOc1ccccc1)OCCOc1ccccc1 | inactive: -28.1%
84 | Cc1nc2ccc3ccccc3c2o1.O=[N+]([O-])c1cc([N+](=O)[O-])c(O)c([N+](=O)[O-])c1 | inactive: 10.4%
